We go through 7 molecules from US8278063B2, “Methods for degrading toxic compounds” (Commonwealth Scientific and Industrial Research Organisation, priority 2007, dated 2012).

Chains of the proteins cited; added tags and fusions are not shown. Lines headed by an entry give the natural chain unless they say otherwise; changes in a name come on top.
UniProt C8CP46: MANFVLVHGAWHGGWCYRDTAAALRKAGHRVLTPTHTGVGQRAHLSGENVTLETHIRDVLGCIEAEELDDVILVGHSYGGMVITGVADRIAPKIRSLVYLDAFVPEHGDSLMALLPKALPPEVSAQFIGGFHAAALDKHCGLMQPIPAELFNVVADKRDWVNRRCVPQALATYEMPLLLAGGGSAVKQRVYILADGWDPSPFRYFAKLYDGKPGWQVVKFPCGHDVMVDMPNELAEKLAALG

One series deals with Nocardioides sp. SG-4G. Description: Resting cell studies of carbendazim degradation (LC-MS). It is filed as cell-based. The settings on record: 8 ppm carbendazim, resting cells of strain SG-4G.
The subject of series [1] is SG-4G 30 kD retentate. The experiment in a line: Carbendazim degrading activity of the 30 kD retentate. It is filed as biochemical, Nocardioides sp. SG-4G. Particulars: 30 kD retentate (proteins 30-50 kD) of resting cell supernatant.
For series [2] the following is noted: cited from earlier work.
Series [3] concerns SG-4G 30 kD retentate. The settings on record: 10 μM final substrate, 25 mM Tris-HCl pH8.0, 30° C., FIG. 10.
Series [4] concerns the target carbendazim hydrolysing enzyme from strain SG-4G (Nocardioides sp., UniProt C8CP46). Description: Esterase activity of ion exchange chromatography fractions. It is filed as biochemical, Nocardioides sp. SG-4G. Particulars: fractions showing carbendazim hydrolytic activity, FIG. 4.

As to `COC(=O)Nc1nc2ccccc2[nH]1` [carbendazim], the “time to complete disappearance and mineralisation” value in the series with Nocardioides sp. SG-4G is given as “three”. In addition, the carbendazim degrading activity result in the series with SG-4G 30 kD retentate [1] is “shown to have activity”. Also, the solubility in series [2] is reported as 8 ppm.
With “(R)-α-Cyano-(6-methoxynaphthalen-2-yl)methyl (1R)trans-3-(2,2-Dichloro vinyl)-2,2-dimethylcyclopropanecarboxylate”, the “activity of SG-4G protein extract for SP substrate” value with SG-4G 30 kD retentate [3] is on record as “significant activity”.
Still for that read-out and setting: as for “(R)-α-Cyano-(6-methoxynaphthalen-2-yl)methyl (1S)trans-3-(2,2-Dichloro vinyl)-2,2-dimethylcyclopropanecarboxylate”, the entry is “No activity”.
Still for that read-out and setting: as for “(R)-α-Cyano-(6-methoxynaphthalen-2-yl)methyl (2R)-(4-Chlorophenyl)-3-methylbutanoate”, the entry is “No activity”; as for “(S)-α-Cyano-(6-methoxy naphthalen-2-yl)methyl (1R) cis-3-(2,2-Dichlorovinyl)-2,2-dimethylcyclopropanecarboxylate”, “significant activity”.
With “(S)-α-Cyano-(6-methoxynaphthalen-2-yl)methyl (1S) trans-3-(2,2-Dichlorovinyl)-2,2-dimethylcyclopropanecarboxylate”, the “activity of SG-4G protein extract for SP substrate” value in the series on SG-4G 30 kD retentate [3] was “significant activity”.
For the molecule naphthyl acetate, in series [4], the esterase activity entry is recorded as “demonstrated esterase activity”.
